The target in the experiment is T1, human TREM1 (human, UniProt Q9NP99 21-234).
T1 construct: whole, on cells; also called hTREM1
As to the kind of experiment: flow cytometry on HEK293 cells over-expressing human TREM-1. How it is done:
100,000 HEK 293 parental or over-expressing human or cynomolgus TREM-1 were plated in 96 well plates and dead cells were stained with Zombie Near Infrared (Biolegend). Titrations of indicated unconjugated antibodies were incubated with these cells within a range of 0 ug/ml to 30 ug/ml in a 1:4 or 1:5 dilution range across 8 points. Dependent on their isotype (hIgG1 or mIgG2a), these primary unconjugated antibodies were detected with Alexa Fluor 647 conjugated anti-human Fcγ or anti-mouse Fcγ secondary antibodies (Jackson Immunoresearch). Alexa Fluor 647 signal was measured by flow cytometry (BD Fortessa X-14, BD Biosciences). EC50 values were calculated by curve fitting signal generated from antibodies binding to over-expressing cells over background fluorescence generated from HEK293 parental cells in Graphpad Prism (Graphpad Software).
On the technique in general: A flow cytometer gives signals particle by particle.

Sequences of proteins named here, by UniProt entry; tags and fusion partners are left off. Residues count along the entry.
UniProt Q9NP99, 21-234: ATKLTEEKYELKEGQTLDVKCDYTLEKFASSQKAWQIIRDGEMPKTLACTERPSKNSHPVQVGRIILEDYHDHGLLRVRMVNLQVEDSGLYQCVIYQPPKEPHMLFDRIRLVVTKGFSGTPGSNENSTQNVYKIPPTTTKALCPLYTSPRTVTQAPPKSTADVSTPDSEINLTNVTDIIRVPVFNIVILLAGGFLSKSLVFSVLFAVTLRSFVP

B1: Pi-8421 (antibody, V domains shown)
VH: EVQLVESGGGLVQPGGSLRLSCAASGFDISYSSIHWVRQAPGKGLEWVASIYSSYGSTYYADSVKGRFTISADTSKNTAYLQMNSLRAEDTAVYYCARYYYSHAGWYVSGYWPAIDYWGQGTLVTVSS
VL: DIQMTQSPSSLSASVGDRVTITCRASQSVSSAVAWYQQKPGKAPKLLIYSASSLYSGVPSRFSGSRSGTDFTLTISSLQPEDFATYYCQQSSYSLITFGQGTKVEIK
Regarding B1, the binding result was “binds”.

The values above are taken from patent publication US20200247889A1 (published 2020).
